These are literature values, as cited in US20170240926A1, “METHODS FOR PRENYLATION OF PEPTIDES AND THEIR USE IN OVER-PRODUCTION OF FARNESENE AND GERANYLGERANYL TERPENES” (University of North Texas, priority 2016, published 2017).

Amino acid sequences for entries named in this document (tags omitted).
UniProt Q02293, whole entry: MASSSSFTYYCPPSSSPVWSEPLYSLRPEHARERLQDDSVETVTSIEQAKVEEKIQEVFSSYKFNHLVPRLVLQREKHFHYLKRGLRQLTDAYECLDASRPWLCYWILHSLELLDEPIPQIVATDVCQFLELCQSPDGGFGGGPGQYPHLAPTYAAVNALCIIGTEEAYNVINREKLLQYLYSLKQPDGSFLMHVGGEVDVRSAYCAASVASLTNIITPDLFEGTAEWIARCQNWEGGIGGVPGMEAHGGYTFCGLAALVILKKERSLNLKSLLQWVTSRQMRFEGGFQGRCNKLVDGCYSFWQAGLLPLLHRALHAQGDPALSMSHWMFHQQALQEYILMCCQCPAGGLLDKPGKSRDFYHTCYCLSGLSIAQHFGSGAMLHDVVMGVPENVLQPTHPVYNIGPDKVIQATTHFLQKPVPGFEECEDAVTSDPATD

For orientation: Kd means the constant that tells how readily two partners part at equilibrium.

Series [1] concerns the target T1, FTase (Rattus norvegicus, UniProt Q02293+Q04631). As to conditions: 10 μM FPP, 0.4-10 μM dansylated peptide, 25-300 nM FTase, 50 mM HEPPSO pH 7.8, 25° C.
The target of series [2] is T1, FTase. As to conditions: dansylated peptide, 50 mM HEPPSO pH 7.8, 25° C.

Regarding `CC(C)C[C@H](NC(=O)[C@@H](NC(=O)[C@H](CS)NC(=O)[C@H](CCCCN)NC(=O)[C@@H](NS(=O)(=O)c1cccc2c(N(C)C)cccc12)[C@@H](C)O)C(C)C)C(=O)N[C@@H](C)C(=O)O`, the kfarn at FTase [1] was 0.51 ± 0.05 s⁻¹.
Consider `CC(C)C[C@H](NC(=O)[C@@H](NC(=O)[C@H](CS)NC(=O)[C@H](CCCCN)NC(=O)[C@@H](NS(=O)(=O)c1cccc2c(N(C)C)cccc12)[C@@H](C)O)[C@@H](C)O)C(=O)N[C@@H](C)C(=O)O`, for which the kfarn on FTase [1] was 0.015 ± 0.002 s⁻¹.
Consider `CSCC[C@H](NC(=O)[C@@H](NC(=O)[C@H](CS)NC(=O)[C@H](CCCCN)NC(=O)[C@@H](NS(=O)(=O)c1cccc2c(N(C)C)cccc12)[C@@H](C)O)[C@@H](C)O)C(=O)N[C@@H](CO)C(=O)O`, for which the kfarn on FTase [1] was 0.91 ± 0.09 s⁻¹. In addition, the dissociation constant Kd on FTase [2] is 6 nM.
As to `CC(C)C[C@H](NC(=O)[C@H](CS)NC(=O)[C@H](CCCCN)NC(=O)[C@@H](NS(=O)(=O)c1cccc2c(N(C)C)cccc12)[C@@H](C)O)C(=O)N[C@H](C(=O)N[C@@H](CO)C(=O)O)[C@@H](C)O`, on FTase [1], the kfarn is 0.35 ± 0.03 s⁻¹. At FTase [2], the Kd is 5 nM.
As for `CC[C@H](C)[C@H](NC(=O)[C@H](CS)NC(=O)[C@H](CCCCN)NC(=O)[C@@H](NS(=O)(=O)c1cccc2c(N(C)C)cccc12)[C@@H](C)O)C(=O)N[C@H](C(=O)N[C@@H](CCC(N)=O)C(=O)O)[C@@H](C)O`, the kfarn at FTase [1] is 1.1 ± 0.1 s⁻¹. The Kd at FTase [2] is 3.6 nM.
Consider `CSCC[C@H](NC(=O)[C@H](CC(C)C)NC(=O)[C@H](CO)NC(=O)[C@H](CS)NC(=O)[C@H](CCCCN)NC(=O)[C@@H](NS(=O)(=O)c1cccc2c(N(C)C)cccc12)[C@@H](C)O)C(=O)O`, for which the kfarn at FTase [1] was 7.0 ± 0.7 s⁻¹. Further, the dissociation constant Kd at FTase [2] is 8 nM.
For the compound `CC(C)C[C@H](NC(=O)[C@@H](NC(=O)[C@H](CS)NC(=O)[C@H](CCCCN)NC(=O)[C@@H](NS(=O)(=O)c1cccc2c(N(C)C)cccc12)[C@@H](C)O)[C@@H](C)O)C(=O)N[C@@H](CCC(N)=O)C(=O)O`, the kfarn at FTase [1] was 1.2 ± 0.1 s⁻¹. Further, the Kd on FTase [2] was 7 nM.
For the compound `CSCC[C@H](NC(=O)[C@H](Cc1ccccc1)NC(=O)[C@H](CO)NC(=O)[C@H](CS)NC(=O)[C@H](CCCCN)NC(=O)[C@@H](NS(=O)(=O)c1cccc2c(N(C)C)cccc12)[C@@H](C)O)C(=O)O`, the kfarn on FTase [1] was 0.44 ± 0.04 s⁻¹. The Kd on FTase [2] is 10 nM.
In the case of `CC[C@H](C)[C@H](NC(=O)[C@@H](NC(=O)[C@@H](NC(=O)[C@H](CS)NC(=O)[C@H](CCCCN)NC(=O)[C@@H](NS(=O)(=O)c1cccc2c(N(C)C)cccc12)[C@@H](C)O)[C@@H](C)O)[C@@H](C)CC)C(=O)O`, the kfarn on FTase [1] was 0.25 ± 0.03 s⁻¹.
On to `CC[C@H](C)[C@H](NC(=O)[C@H](CCCCN)NC(=O)[C@H](CS)NC(=O)[C@H](CCCCN)NC(=O)[C@@H](NS(=O)(=O)c1cccc2c(N(C)C)cccc12)[C@@H](C)O)C(=O)N[C@@H](Cc1ccccc1)C(=O)O`, for which, on FTase [1], the kfarn is 0.74 ± 0.07 s⁻¹.
For the compound `CC[C@H](C)[C@H](NC(=O)[C@H](CCCCN)NC(=O)[C@H](CS)NC(=O)[C@H](CCCCN)NC(=O)[C@@H](NS(=O)(=O)c1cccc2c(N(C)C)cccc12)[C@@H](C)O)C(=O)N[C@@H](CO)C(=O)O`, the kfarn on FTase [1] was 0.64 ± 0.06 s⁻¹. Also, the Kd on FTase [2] was 4 nM.
As for `CC(C)C[C@H](NC(=O)[C@H](CO)NC(=O)[C@H](CS)NC(=O)[C@H](CCCCN)NC(=O)[C@@H](NS(=O)(=O)c1cccc2c(N(C)C)cccc12)[C@@H](C)O)C(=O)NCC(=O)O`, the kfarn at FTase [1] was 0.059 ± 0.006 s⁻¹. Besides, on FTase [2], the dissociation constant Kd was 3.4 nM.
`CC(C)C[C@H](NC(=O)[C@@H](NC(=O)[C@H](CS)NC(=O)[C@H](CCCCN)NC(=O)[C@@H](NS(=O)(=O)c1cccc2c(N(C)C)cccc12)[C@@H](C)O)C(C)C)C(=O)N[C@@H](Cc1c[nH]cn1)C(=O)O`: the kfarn on FTase [1] was 0.32 ± 0.03 s⁻¹.
Take `CC[C@H](C)[C@H](NC(=O)[C@H](CO)NC(=O)[C@H](CS)NC(=O)[C@H](CCCCN)NC(=O)[C@@H](NS(=O)(=O)c1cccc2c(N(C)C)cccc12)[C@@H](C)O)C(=O)N[C@@H](CO)C(=O)O`: on FTase [1], the kfarn was 3.8 ± 0.3 s⁻¹. Also, the dissociation constant Kd at FTase [2] is 3.4 nM.
In the case of `CC[C@H](C)[C@H](NC(=O)[C@H](CC(C)C)NC(=O)[C@H](CS)NC(=O)[C@H](CCCCN)NC(=O)[C@@H](NS(=O)(=O)c1cccc2c(N(C)C)cccc12)[C@@H](C)O)C(=O)N[C@H](C(=O)O)[C@@H](C)O`, the kfarn at FTase [1] is 0.74 ± 0.07 s⁻¹.
For the compound `CC[C@H](C)[C@H](NC(=O)[C@H](CS)NC(=O)[C@H](CCCCN)NC(=O)[C@@H](NS(=O)(=O)c1cccc2c(N(C)C)cccc12)[C@@H](C)O)C(=O)N[C@H](C(=O)N[C@@H](C)C(=O)O)C(C)C`, the kfarn on FTase [1] was 4.7 ± 0.5 s⁻¹. For the same compound, the Kd at FTase [2] was 5 nM.
In the case of `CC[C@H](C)[C@H](NC(=O)[C@H](CC(N)=O)NC(=O)[C@H](CS)NC(=O)[C@H](CCCCN)NC(=O)[C@@H](NS(=O)(=O)c1cccc2c(N(C)C)cccc12)[C@@H](C)O)C(=O)N[C@@H](CCSC)C(=O)O`, the kfarn on FTase [1] was 3.5 ± 0.3 s⁻¹. Also, the Kd on FTase [2] is 5 nM.
In the case of `CC(C)[C@H](NC(=O)[C@H](C)NC(=O)[C@H](CS)NC(=O)[C@H](CCCCN)NC(=O)[C@@H](NS(=O)(=O)c1cccc2c(N(C)C)cccc12)[C@@H](C)O)C(=O)N[C@@H](CCC(N)=O)C(=O)O`, on FTase [1], the kfarn is 11 ± 1 s⁻¹.
As to `CC(C)[C@H](NC(=O)[C@H](CO)NC(=O)[C@H](CS)NC(=O)[C@H](CCCCN)NC(=O)[C@@H](NS(=O)(=O)c1cccc2c(N(C)C)cccc12)[C@@H](C)O)C(=O)N[C@@H](CO)C(=O)O`, on FTase [1], the kfarn is 0.97 ± 0.09 s⁻¹.
As to `CSCC[C@H](NC(=O)[C@H](CC(C)C)NC(=O)[C@H](CC(C)C)NC(=O)[C@H](CS)NC(=O)[C@H](CCCCN)NC(=O)[C@@H](NS(=O)(=O)c1cccc2c(N(C)C)cccc12)[C@@H](C)O)C(=O)O`, the kfarn on FTase [1] was 4.9 ± 0.5 s⁻¹.
In the case of `CC(C)C[C@H](NC(=O)[C@H](CC(N)=O)NC(=O)[C@H](CS)NC(=O)[C@H](CCCCN)NC(=O)[C@@H](NS(=O)(=O)c1cccc2c(N(C)C)cccc12)[C@@H](C)O)C(=O)N[C@@H](CCC(N)=O)C(=O)O`, the kfarn on FTase [1] is 1.6 ± 0.2 s⁻¹. In addition, the Kd at FTase [2] is 8 nM.
For `CC[C@H](C)[C@H](NC(=O)[C@H](CS)NC(=O)[C@H](CS)NC(=O)[C@H](CCCCN)NC(=O)[C@@H](NS(=O)(=O)c1cccc2c(N(C)C)cccc12)[C@@H](C)O)C(=O)N[C@@H](CC(C)C)C(=O)O`, the Kd on FTase [2] is 300 nM.
In the case of `C[C@@H](O)[C@H](NC(=O)[C@H](CS)NC(=O)[C@H](CCCCN)NC(=O)[C@@H](NS(=O)(=O)c1cccc2c(N(C)C)cccc12)[C@@H](C)O)C(=O)N[C@@H](CCCCN)C(=O)N[C@@H](Cc1ccccc1)C(=O)O`, the kfarn on FTase [1] is 0.24 ± 0.02 s⁻¹. Besides, the Kd on FTase [2] was 6 nM.
As to `CC[C@H](C)[C@H](NC(=O)CNC(=O)[C@H](CS)NC(=O)[C@H](CCCCN)NC(=O)[C@@H](NS(=O)(=O)c1cccc2c(N(C)C)cccc12)[C@@H](C)O)C(=O)N[C@@H](CCSC)C(=O)O`, the kfarn on FTase [1] is 4.0 ± 0.4 s⁻¹. For the same compound, the Kd on FTase [2] is 3.6 nM.
With `CSCC[C@H](NC(=O)[C@@H](NC(=O)[C@H](CC(C)C)NC(=O)[C@H](CS)NC(=O)[C@H](CCCCN)NC(=O)[C@@H](NS(=O)(=O)c1cccc2c(N(C)C)cccc12)[C@@H](C)O)C(C)C)C(=O)O`, the kfarn on FTase [1] is 8.2 ± 0.8 s⁻¹. The Kd at FTase [2] is 6 nM.
Consider `C[C@@H](O)[C@H](NS(=O)(=O)c1cccc2c(N(C)C)cccc12)C(=O)N[C@@H](CCCCN)C(=O)N[C@@H](CS)C(=O)N[C@@H](Cc1ccc(O)cc1)C(=O)N1CCC[C@H]1C(=O)N[C@@H](CC(=O)O)C(=O)O`, for which the kfarn on FTase [1] is 0.56 ± 0.05 s⁻¹.
On to `CC[C@H](C)[C@H](NC(=O)[C@H](CO)NC(=O)[C@H](CS)NC(=O)[C@H](CCCCN)NC(=O)[C@@H](NS(=O)(=O)c1cccc2c(N(C)C)cccc12)[C@@H](C)O)C(=O)N[C@@H](CCSC)C(=O)O`, for which the kfarn on FTase [1] was 9.7 ± 0.9 s⁻¹. In addition, on FTase [2], the Kd is 6 nM.
On to `CC(C)C[C@H](NC(=O)[C@H](CO)NC(=O)[C@H](CS)NC(=O)[C@H](CCCCN)NC(=O)[C@@H](NS(=O)(=O)c1cccc2c(N(C)C)cccc12)[C@@H](C)O)C(=O)N[C@@H](CS)C(=O)O`, for which the kfarn on FTase [1] is 4.7 ± 0.5 s⁻¹. For the same compound, the Kd at FTase [2] is 5 nM.
For the compound `CC(C)[C@H](NC(=O)[C@H](CS)NC(=O)[C@H](CCCCN)NC(=O)[C@@H](NS(=O)(=O)c1cccc2c(N(C)C)cccc12)[C@@H](C)O)C(=O)N[C@H](C(=O)N[C@H](C(=O)O)[C@@H](C)O)C(C)C`, at FTase [1], the kfarn is 0.33 ± 0.03 s⁻¹. For the same compound, on FTase [2], the Kd is 7 nM.
With `CSCC[C@H](NC(=O)[C@@H](NC(=O)[C@H](Cc1ccc(O)cc1)NC(=O)[C@H](CS)NC(=O)[C@H](CCCCN)NC(=O)[C@@H](NS(=O)(=O)c1cccc2c(N(C)C)cccc12)[C@@H](C)O)C(C)C)C(=O)O`, the kfarn on FTase [1] is 1.1 ± 0.1 s⁻¹. Besides, the Kd on FTase [2] is 12 nM.
As to `CC[C@H](C)[C@H](NC(=O)[C@H](CCCNC(=N)N)NC(=O)[C@H](CS)NC(=O)[C@H](CCCCN)NC(=O)[C@@H](NS(=O)(=O)c1cccc2c(N(C)C)cccc12)[C@@H](C)O)C(=O)N[C@@H](CO)C(=O)O`, the kfarn on FTase [1] is 2.5 ± 0.5 s⁻¹. Also, the Kd on FTase [2] is 12 nM.
